Assays:
dopamine D2 receptors = target: T1, dopamine D2 receptors (Rattus norvegicus, UniProt P61169); assay: Inhibition of 3H-Spiperone binding to dopamine D2 receptors in rat corpus striatum in vitro; settings: 0.5 nM 3H-spiperone, rat corpus striatum membranes, read-out: Dopamine D2 binding [^3 H]-spiroperidol
T1 construct: dopamine D2 receptors in membranes from rat corpus striatum; from tissue; host or cells: rat corpus striatum membranes
Procedure: Inhibition of ^3 H-Spiperone Binding to Dopamine D2 Receptors in Rat Corpus Striatum in vitro
By this method the inhibition by drugs of the binding of ^3 H-spiperone (0.5 nM) to dopamine D2 receptors in membranes from rat corpus striatum is determined in vitro. The method and results for standard compounds are described in Hyttel & Larsen, J. Neurochem, 44, 1615-1622, 1985).

Amino acid sequences for entries named in this document (tags omitted).
UniProt P61169, whole entry: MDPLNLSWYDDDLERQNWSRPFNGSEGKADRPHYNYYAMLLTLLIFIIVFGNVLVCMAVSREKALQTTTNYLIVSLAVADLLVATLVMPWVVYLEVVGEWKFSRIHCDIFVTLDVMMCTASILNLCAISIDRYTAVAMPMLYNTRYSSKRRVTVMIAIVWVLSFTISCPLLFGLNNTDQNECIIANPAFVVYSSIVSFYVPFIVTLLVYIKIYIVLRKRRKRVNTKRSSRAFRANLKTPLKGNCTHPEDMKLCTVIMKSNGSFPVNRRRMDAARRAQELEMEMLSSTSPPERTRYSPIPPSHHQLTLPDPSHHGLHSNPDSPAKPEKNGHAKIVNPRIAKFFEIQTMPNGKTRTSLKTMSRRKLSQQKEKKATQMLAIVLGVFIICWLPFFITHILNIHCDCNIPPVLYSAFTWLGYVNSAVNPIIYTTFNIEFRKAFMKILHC
UniProt P14842, whole entry: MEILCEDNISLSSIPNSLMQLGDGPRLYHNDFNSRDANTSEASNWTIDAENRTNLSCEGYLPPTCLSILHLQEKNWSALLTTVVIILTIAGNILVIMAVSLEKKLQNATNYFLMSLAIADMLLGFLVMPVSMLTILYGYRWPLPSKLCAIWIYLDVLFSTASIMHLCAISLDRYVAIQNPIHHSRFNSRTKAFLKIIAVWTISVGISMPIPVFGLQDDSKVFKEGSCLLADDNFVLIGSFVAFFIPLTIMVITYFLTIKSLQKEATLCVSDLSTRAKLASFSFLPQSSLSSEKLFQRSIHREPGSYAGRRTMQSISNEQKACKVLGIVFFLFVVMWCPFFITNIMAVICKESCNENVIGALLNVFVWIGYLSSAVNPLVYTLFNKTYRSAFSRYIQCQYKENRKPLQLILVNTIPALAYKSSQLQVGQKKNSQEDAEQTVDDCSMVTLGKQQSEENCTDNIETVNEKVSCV

5-HT2 receptors = target: T2, 5-HT2 receptors (Rattus norvegicus, UniProt P14842); assay: Inhibition of 3H-Ketanserin binding to 5-HT2 receptors in membranes from rat cortex in vitro; settings: 0,5 nM 3H-ketanserin
T2 construct: 5-HT2 receptors in membranes from rat; from tissue; host or cells: rat cortex membranes
Procedure: Inhibition of ^3 H-Ketanserin Binding To 5-HT2 Receptors in […] Cortex in vitro
By this method the inhibition by drugs of the binding of ^3 H-Ketanserin (0,5 nM) to 5-HT2 receptors in membranes from rat is determined in vitro. The method is described in Hyttel, Pharmacology & Toxicology 61, 126-129, 1987.

[2H]C1([2H])NC(=O)N(CCN2CCC(c3cn(-c4ccc(F)cc4)c4ccc(Cl)cc34)CC2)C1([2H])[2H] [Compound 4, 1-[2-[4-[5-Chloro-1-(4-fluorophenyl)-1H-indol-3-yl]piperidin-1-yl]ethyl]-4,4,5,5-tetradeuteroimidazolidin-2-one]
IC50 (dopamine D2 receptors): 8.3 nM | IC50 (5-HT2 receptors): 1.1 nM

[2H]C1([2H])CN(CCN2CCC(c3cn(-c4ccc(F)cc4)c4ccc(Cl)cc34)CC2)C(=O)N1 [Compound 5, 1-[2-[4-[5-Chloro-1-(4-fluorophenyl)-1H-indol-3-yl]piperidin-1-yl]ethyl]-4,4-dideuteroimidazolidin-2-one]
IC50 (dopamine D2 receptors): 5.9 nM | IC50 (5-HT2 receptors): 0.69 nM

[2H]C1([2H])CNC(=O)N1CCN1CCC(c2cn(-c3ccc(F)cc3)c3ccc(Cl)cc23)CC1 [Compound 6, 1-[2-[4-[5-Chloro-1-(4-fluorophenyl)-1H-indol-3-yl]piperidin-1-yl]ethyl]-5,5-dideuteroimidazolidin-2-one]
IC50 (dopamine D2 receptors): 7.6 nM | IC50 (5-HT2 receptors): 0.98 nM

O=C1NCCN1CCN1CCC(c2cn(-c3ccc(F)cc3)c3ccc(Cl)cc23)CC1 [sertindole, 1-[2-[4-[5-chloro-1-(4-fluorophenyl)-1H-indol-3-yl]piperidin-1-yl]ethyl]-2-imidazolidinone, reference compound]
IC50 (5-HT2 receptors): 0.39 nM

Source: patent publication US5703087A, “Phenyl indole compounds” (H. Lundbeck A/S, priority 1993, dated 1997)
